Measured values taken from US8354447B2, “mGLU receptors antagonists for treating disorders associated with mGLU receptors including addiction and depression” (The Scripps Research Institute, priority 2002, dated 2013).

Tested on: male Wistar rats
Experiment: Brain stimulation reward (ICSS) under baseline conditions, paroxetine and p-MPPI
Type: in vivo, rat

SMILES: Fc1ccc([C@@H]2CCNC[C@H]2COc2ccc3c(c2)OCO3)cc1 [paroxetine, Paroxetine hydrochloride]
- response latencies (paroxetine 1.25-10 mg/kg (Example 4.1)): had no significant effect on reward thresholds or response latencies at the doses tested
- response latencies (paroxetine 1.25 or 5 mg/kg (Example 4.2)): increased response latencies

Counter-ions that a name gives are not always drawn.
